This experiment has as its target Thymidine phosphorylase (Escherichia coli K-12, UniProt P07650).

The chains behind the UniProt entries cited, without tags or fusion partners. Where a name states a change or a piece, a line headed by the entry shows the natural chain unless it says otherwise.
UniProt P07650: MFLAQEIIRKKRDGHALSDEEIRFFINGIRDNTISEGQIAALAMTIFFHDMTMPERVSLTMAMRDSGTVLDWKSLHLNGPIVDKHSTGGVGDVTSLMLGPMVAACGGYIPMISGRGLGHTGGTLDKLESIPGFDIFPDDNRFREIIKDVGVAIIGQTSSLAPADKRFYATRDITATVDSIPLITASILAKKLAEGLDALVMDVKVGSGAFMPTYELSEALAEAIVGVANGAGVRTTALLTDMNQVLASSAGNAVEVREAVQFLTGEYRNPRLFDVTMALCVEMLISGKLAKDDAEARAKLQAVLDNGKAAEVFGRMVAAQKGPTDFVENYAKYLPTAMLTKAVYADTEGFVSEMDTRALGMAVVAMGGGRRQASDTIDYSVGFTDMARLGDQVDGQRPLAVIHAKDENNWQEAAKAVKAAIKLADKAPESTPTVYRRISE

SMILES strings stand for the structures.

As for `O=c1[nH]c(=O)c2cc[nH]c2[nH]1` [7-DEAZAXANTHINE], 6.5 µM corresponded to half-maximal inhibition (IC50).
